Assay results taken from PubChem BioAssay AID1645870 (National Center for Advancing Translational Sciences (NCATS), 2021).
Only a part is listed here, and it is no random draw. Inconclusive results are not listed. The source made the active and inactive calls. Calls come from the whole dose curve; as a rule, active = well fitted inhibition curve with a large enough effect; inconclusive = small, poorly fitted or top-dose-only effect; inactive = flat fitted curve, though single readings scatter.

The chains behind the UniProt entries cited, without tags or fusion partners.
UniProt Q9BV86, whole entry: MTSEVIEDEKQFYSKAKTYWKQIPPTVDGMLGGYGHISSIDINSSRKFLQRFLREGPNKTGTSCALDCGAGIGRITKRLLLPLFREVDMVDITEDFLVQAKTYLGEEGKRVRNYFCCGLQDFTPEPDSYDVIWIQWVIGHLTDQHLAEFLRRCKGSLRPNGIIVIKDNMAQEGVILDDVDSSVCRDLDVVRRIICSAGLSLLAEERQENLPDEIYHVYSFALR

target: N-terminal Xaa-Pro-Lys N-methyltransferase 1 (Homo sapiens) (UniProt Q9BV86); assay: Primary qHTS for Inhibitors of N-terminal methyltransferase 1 (NTMT1): MTaseGlo Assay; details: NTMT1 MTase-Glo SAH luminescence, purified enzyme; note: nearly all actives have a fitted effect of over 65% in size
Description: Assay Submitter (PI): Rong Huang Ph.D.
Purdue University, West Lafayette, IN 47907
The N-terminal methytransferase 1 is the first methyltransferase that methylates protein alpha-N-amines and plays an important role in regulating cell mitosis, chromatin interactions and DNA repair. It is observed to be over-expressed in various cancer patient tissues like malignant melanoma and colorectal cancer tissues. Knockdown of NTMT1 in cancer cells causes cell mitotic defects and enhances sensitivity to DNA damaging chemotherapeutics. […] These critical cellular processes in which NTMT1 is implicated, coupled with emerging links to cellular dysfunction, strengthen the inference that NTMT1 is a compelling novel anticancer target. […] To address this unmet need, a panel of assay is created and established to enable quantitative high-throughput screening (qHTS) for novel, potent, and selective small molecule NTMT1 inhibitors. […]
MTaseGlo Assay is a luminescence screen that measure the activity of methyltransferases based on the reaction product S-adenosyl homocysteine (SAH). […]
8; Reagent; 5 uL; Dispense 5 uL of 1x MTase-Glo Detection Solution (R) to allow for ADP to be converted to ATP which was then detected with a luciferase reaction. […]
11; Detection; Luminescence; Plates were read on ViewLux detector (PerkinElmer). […]
Potency is the fitted concentration of half-maximal effect.

| SMILES | Potency |
| --- | --- |
| C/C1=C2N=C(/C=C3N=C(/C(C)=C4\[N-][C@@](C)([C@@H]5N=C1[C@](C)(CCC(=O)NC[C@@H](C)OP(=O)([O-])O[C@H]1[C@@H](O)[C@@H](n6cnc7cc(C)c(C)cc76)O[C@@H]1CO)[C@H]5CC(N)=O)[C@@](C)(CC(N)=O)[C@@H]4CCC(N)=O)[C@@](C)(CC(N)=O)[C@@H]\3CCC(N)=O)C(C)(C)[C@@H]/2CCC(N)=O.[C-]#N.[Co+3] | active: 28.2 µM |
